In one assay the test system is CaNOX::AaE2. As to conditions: after 5 min incubation with inhibitor on ice.
Assay [1] has as its system EcG3PD::CaNOX::AaE2 (TriF2). Conditions: after 5 min incubation with inhibitor on ice.

For the compound `O=C(CBr)C(F)(F)F`, the residual esterase activity entry (in the assay with CaNOX::AaE2; in assay [1]) was “greatly decreased” each time.

The values above are taken from US20180208920A1, “MOLECULAR MACHINES” (Commonwealth Scientific and Industrial Research Organisation, priority 2015, published 2018).
